Measured values reported in patent US20240158368A1, “Pyrrolidine Main Protease Inhibitors as Antiviral Agents” (AbbVie Inc., priority 2022, published 2024).

Amino acid sequences for entries named in this document (tags omitted). Residues count along the entry.
UniProt P0C6X1, 2966-3267 limits assumed: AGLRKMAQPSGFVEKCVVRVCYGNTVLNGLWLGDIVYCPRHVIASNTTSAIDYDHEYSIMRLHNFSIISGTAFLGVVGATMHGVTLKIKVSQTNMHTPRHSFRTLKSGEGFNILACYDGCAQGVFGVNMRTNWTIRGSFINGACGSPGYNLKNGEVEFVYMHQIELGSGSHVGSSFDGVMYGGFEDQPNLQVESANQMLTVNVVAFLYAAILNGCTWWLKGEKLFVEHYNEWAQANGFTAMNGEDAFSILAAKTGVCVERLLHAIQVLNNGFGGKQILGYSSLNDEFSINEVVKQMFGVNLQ
UniProt P0C6X6, 3247-3549 limits assumed: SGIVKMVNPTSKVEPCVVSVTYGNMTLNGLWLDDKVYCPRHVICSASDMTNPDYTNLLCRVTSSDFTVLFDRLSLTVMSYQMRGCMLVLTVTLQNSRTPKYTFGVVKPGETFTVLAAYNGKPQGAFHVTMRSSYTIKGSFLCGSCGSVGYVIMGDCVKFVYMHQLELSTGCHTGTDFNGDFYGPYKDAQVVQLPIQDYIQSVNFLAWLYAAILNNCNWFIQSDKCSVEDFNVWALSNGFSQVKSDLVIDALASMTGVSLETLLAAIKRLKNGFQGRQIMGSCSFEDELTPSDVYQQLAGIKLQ

How the values were obtained:
[1] = biological target: 229E Mpro (Human coronavirus 229E (HCoV-229E), UniProt P0C6X1); assay type: biochemical
[2] = biological target: OC43 Mpro (Human coronavirus OC43 (HCoV-OC43), UniProt P0C6X6); assay type: biochemical
[3] = biological target: SARS-CoV-2 Mpro (Severe acute respiratory syndrome coronavirus 2 (2019-nCoV) (SARS-CoV-2), UniProt P0DTD1); conditions: read-out: SARS-CoV-2 EC50

Row | Compound | EC50 [1] [µM] | EC50 [2] [µM] | EC50 [3] [µM]
1 | N#Cc1cc(C(=O)N2CCOCC2)c(N2CC[C@H](NC(=O)c3cc(=O)[nH]c4c(F)cccc34)C2)c(C(F)(F)F)c1 [Compound 4] | 0.0398 | 0.241 | 0.00872
2 | O=C(N[C@H]1CCN(c2c(C(=O)N3CCOCC3)cc(Br)cc2C(F)(F)F)C1)c1cc(=O)[nH]c2c(F)cccc12 [Compound 47] | 0.117 | 0.138 | 0.0099
